Data reported in patent publication US8263631B2, “Anti-cancer pharmaceutical compositions and methods for treating patients with cancer” (Daiichi Sankyo Company, Limited, priority 2006, dated 2012).

System: human non-small-cell lung cancer line A549
Test: In vitro cell proliferation inhibitory activity, combination with VEGFR and Raf kinase inhibitor
Type: cell-based
Conditions: A549, 144 h, read-out: Proliferation inhibition rate
Experimental: Human non-small-cell lung cancer line A549 cells were inoculated on a 96-well plate at 5×10^2 cells/well, and at the same time, agents of various concentrations dissolved in DMSO were added so that the concentration of DMSO became 0.1%. […] After addition of the drugs, the cells were cultivated in the presence of 5% carbon dioxide at 37° C. for 6 days. Then, Cell Titer 96 Aqueous One Solution Reagent (Promega Corp.) was added at 40 μl/well each, and then absorbance A490 of each well was measured using MICROPLATE READER (Bio-Rad Laboratories, Inc.).

Work on `CNC(=O)c1cc(Oc2ccc(NC(=O)Nc3ccc(Cl)c(C(F)(F)F)c3)cc2)ccn1` [Sorafenib, sorafenib, reference compound] yielded an inhibition at 5 µM of 47%.
